Apparent affinities of Ab-14 variants for a coronavirus HR2 peptide

Reference: Li et al. 2023, doi:10.1038/s41467-023-39022-2. File: FLAb, binding data.

Binding partner: SARS-CoV-2 spike HR2 peptide, sequence PDVDLGDISGINAS.

Parent scFv Ab-14: VH joined to VL by a (GGGGS)3 linker. Changes lie in the light chain CDRs alone.
VH: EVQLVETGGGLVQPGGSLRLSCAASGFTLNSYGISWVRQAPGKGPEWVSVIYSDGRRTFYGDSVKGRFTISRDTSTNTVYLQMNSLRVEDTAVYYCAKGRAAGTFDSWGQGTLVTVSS
VL: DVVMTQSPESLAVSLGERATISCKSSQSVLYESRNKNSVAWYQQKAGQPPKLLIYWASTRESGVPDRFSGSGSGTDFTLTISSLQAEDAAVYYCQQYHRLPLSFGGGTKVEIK

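The starting antibody came from a phage panning campaign against this peptide. The variants were designed computationally from a first round of random CDR variants and then made and measured. Group labels follow the data file (Ctrl: baseline library sampled from a position-specific scoring matrix, with some repeated check sequences; Rand: our label for a block that the file lists under HC and that is probably the random mutants of the ten best first-round binders; GP: Gaussian process model; HC: hill climbing; Gen: genetic algorithm; Gibbs: Gibbs sampling; a sequence that several methods proposed may carry one label only). In AlphaSeq, yeast of one mating type display the scFv and yeast of the other type display the target. The frequency of each diploid, read from paired DNA barcodes, reflects how well the two displayed proteins bind. Scores were corrected for input abundance and mapped to Kd with protein pairs of known affinity run in the same pool. There are six technical replicates.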

Variants are written as CDR1, CDR2 and CDR3 of the light chain (limits as in the source). Parent: KSSQSVLYESRNKNSVA, WASTRES, QQYHRLPLS.
This list holds designs with at most six substitutions.
The Kd shown is the geometric mean over detected replicates; a lower Kd is a better binder.
"nd" means that the variant was in the library but no mating with the target was seen in any replicate; the authors take this as a sign of poor binding, and no number exists.
Order: sorted from the lowest average up, undetected variants last.

Variant HLSPSVLYESRNKNSVA | NASTRES | QQYHRLPLQ [GP_HC] showed 200 pM (6 of 6 replicates). Variant HSSGSTLYESRNKNSVA | NASTRES | QQYHRLPLS [GP_HC] showed 360 pM (6 of 6 replicates). For KFSQSVLYESRNKNSVA | GASTREQ | QQYHRLPLS [GP_Gen], the assay gave 390 pM (6 of 6 replicates). Variant KLPQSFLYESRNKNSVA | EASTRES | QQYHRLPLS [GP_Gen] gave 410 pM (6 of 6 replicates). Variant KMPQSQLYESRNKNSVA | NASTRES | QQYHRLPLS [GP_Gen] showed 410 pM (6 of 6 replicates).

Variant KLEQSVLYEQRNKNSVA | NASTRES | QQYHRLPLS [GP_Gen] gave 510 pM (6 of 6 replicates). Variant KSEQSYYGESRNKNSVA | AASTRES | QQYARLPLS [Ctrl] gave 520 pM (6 of 6 replicates). For KLSGSVLMESRNKNSVA | EASTRES | QQYHRLPLS [GP_Gen], the assay gave 580 pM (6 of 6 replicates). Variant KLQQSVLYESRNKNSVA | NASTREQ | QQYHRLPLS [GP_Gen] showed 580 pM (6 of 6 replicates). With KQSQSVLFESRNKNSVA | DASFRES | QQYHRLPLS [GP_HC] the result was 680 pM (6 of 6 replicates).

With KVSQSMDYESRNKNSVA | DASTRES | QQYHRLPLS [GP_Gen] the result was 720 pM (6 of 6 replicates). Variant KLSQMNLYESRNKNSVA | NASTRES | QQYHRLPLS [GP_Gen] gave 790 pM (6 of 6 replicates). With KFEQSVLYESRNKNSVA | NASQRMS | QQYHRLPLS [GP_Gen] the result was 790 pM (6 of 6 replicates). Variant KLQQSVPYESRNKNSVA | NASTRES | QQYHRLPLS [GP_Gen] gave 850 pM (6 of 6 replicates). Variant KLEQSVPYESRNKNSVA | NASTRES | QQYHRLPLS [GP_Gen] showed 860 pM (6 of 6 replicates).

With KVLQSVLYESRNKNSVA | HASTRED | QQYHQLPLI [GP_HC] the result was 940 pM (6 of 6 replicates). Variant KLQQSMLYESRNKNSVA | SASTRES | QQYHRLPLS [GP_Gen] showed 1.0 nM (6 of 6 replicates). Variant KSSWSVLLESRNKNSVA | DASTRES | QQYHRLPLS [GP_HC] showed 1.2 nM (6 of 6 replicates). For KLYISFLYESRNKNSVA | EASTRES | QQYHRLPLS [GP_HC], the assay gave 1.2 nM (6 of 6 replicates). For KLSQSKLYESRNKNSVA | NASTRES | QDYHRLPLS [GP_Gen], the assay gave 1.2 nM (6 of 6 replicates).

Variant KLSQSMLYESRDKNSVA | GASTRES | QQYHRLPLS [Ctrl] showed 1.3 nM (6 of 6 replicates). For KLSMSDLYESRNGNSVA | EASTREK | QQYHRLPLS [GP_Gibbs], the assay gave 1.4 nM (6 of 6 replicates). Variant KLMQSELYESRNKNSVA | NASTRLS | QQYHRLPLS [GP_Gen] showed 1.4 nM (6 of 6 replicates). With KLRGSTLYESRNKNSVA | WASTRES | QQYHRLPLS [GP_HC] the result was 1.6 nM (6 of 6 replicates). For HLSAVVLYESRNKNSVA | NASTRES | QQYHRLPLS [GP_HC], the assay gave 1.6 nM (6 of 6 replicates).

Variant KLSQSVEYESRNKWSVA | NASTRES | QQYHRLPLS [GP_Gen] gave 1.6 nM (6 of 6 replicates). Variant KVSQSILYESVNKNSVA | HASTRES | QQYHRLPLS [GP_HC] gave 2.5 nM (6 of 6 replicates). For KFSQSVPYESSNKNSVA | WATTRES | QQYHRLPLS [Ctrl], the assay gave 3.0 nM (5 of 6 replicates). For KLAQSDLYESRNFNSVA | AASTRES | QQYHRLPLS [GP_Gibbs], the assay gave 4.4 nM (6 of 6 replicates). Variant KMPQSNLYESRNKNSVA | NASTRES | QQYHRLPLS [GP_Gen] gave 9.3 nM (6 of 6 replicates).

Variant KSSQAVGYESRNKNSVA | MASTREP | QQYHRLPLS [Ctrl] showed 17 nM (6 of 6 replicates). Variant KLSQSVLYESRNKNSVA | WASTRES | QQYHRLLLS [Ctrl] gave 23 nM (3 of 6 replicates). For KSGQGVLYEYMNKNSVA | GASTMES | QQYHRLPLS [Rand], the assay gave 24 nM (6 of 6 replicates). For KSDQSVLYESPNKNSVA | WASTRLS | QQYHRLGLS [Ctrl], the assay gave 25 nM (1 of 6 replicates). For KSSQLVLYESRNKNSVA | WASVREA | QQYHRLPLS [Ctrl], the assay gave 63 nM (6 of 6 replicates).

Variant KSSQSVLYEMRNKNSVA | WASTRFS | QQYHRLPLS [Ctrl] showed 68 nM (4 of 6 replicates). Variant KSSQSVLYESENANHVA | WESTRES | QQYHRLPLS [Ctrl] gave 78 nM (1 of 6 replicates). With MLSQSVLYESRNKNSVA | RAFTRES | QQYHRLPLS [Ctrl] the result was 78 nM (3 of 6 replicates). Variant KSSQSVMYESRNKNSVA | WASTRIS | QQYHRLPLS [Ctrl] showed 87 nM (1 of 6 replicates). For KSEQSVLIESRNKNSVA | WADTRES | QQYHRLPLS [Ctrl], the assay gave 170 nM (5 of 6 replicates).

Variant KYSQSNLYEQRNFNSVA | NASYRES | QQYHRLPLS [GP_Gibbs] showed 550 nM (1 of 6 replicates). With KSSMSVLYEMDNKNSVA | WASTRES | QQYHRHPLS [Ctrl] the result was nd (0 of 6 replicates). Variant KIMQSVGNESRNKNSVA | EASTRES | QQYHRLHLS [Ctrl] showed nd (0 of 6 replicates). For KSPQSQLYESRNKNSVA | HASTRED | QSYHRLPLS [GP_HC], the assay gave nd (0 of 6 replicates). For KSSQSVFYESRNKNSVA | WASTRES | LQYHRLPLK [Ctrl], the assay gave nd (0 of 6 replicates).

Variant KFSQSVLYESSNKNSVA | WVSTRES | QQVHRLPLS [Ctrl] showed nd (0 of 6 replicates). Variant KLSQSVHGESRNKNSVA | QASTREH | QQYHRLPLI [Ctrl] gave nd (0 of 6 replicates). Variant FYSQSFLYESRNKNSVA | WASTRES | QQYCQLPLS [Ctrl] showed nd (0 of 6 replicates). Variant KSSESVLYEFRNKNVVA | WASTRES | QQYHRLPLS [Ctrl] gave nd (0 of 6 replicates).

The first 6 entries again:

CDR-L1,CDR-L2,CDR-L3,group,Kd (apparent),seen in
HLSPSVLYESRNKNSVA,NASTRES,QQYHRLPLQ,GP_HC,200 pM,6 of 6
HSSGSTLYESRNKNSVA,NASTRES,QQYHRLPLS,GP_HC,360 pM,6 of 6
KFSQSVLYESRNKNSVA,GASTREQ,QQYHRLPLS,GP_Gen,390 pM,6 of 6
KLPQSFLYESRNKNSVA,EASTRES,QQYHRLPLS,GP_Gen,410 pM,6 of 6
KMPQSQLYESRNKNSVA,NASTRES,QQYHRLPLS,GP_Gen,410 pM,6 of 6
KLEQSVLYEQRNKNSVA,NASTRES,QQYHRLPLS,GP_Gen,510 pM,6 of 6

As a blank, each scFv also met three strains without target: over all light chain designs, 4% of these pairings were detected, typically at 430 nM and seldom below 38 nM.
The parent sequence was in this pool as ten entries: three were never detected, three once, and four in most replicates, with averages from 2.2 nM to 240 nM.
Values of this round are not directly comparable with the first-round values of the same sequences.
The authors averaged sequences with at least three values out of six and counted those with two or fewer as poor binders.